GIV-Gai inh = inhibitors of GIV GBA-motif binding to rat Galpha-i3; P08753; Galpha-i3/FITC-GIV peptide fluorescence polarization, 90 min; stronger effect = lower value; scaled: aluminum fluoride 0%, vehicle 100%; percent of control (FP), % (test concentration not listed); 210,000 tested, 0.42% active; AID 1224905;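 active = replicate mean at 85% of control or lower, very high polarization wells dropped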;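 note: wells of about 15 µL received 100 nL stock; the first replicate is given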
Numbers stand for hits. The entries come from a sample that favours hits as a whole.

What do the screens show for `Cn1c(=O)n(C)c2cc(/C=C(\C#N)C(N)=C(C#N)C#N)ccc21`?
GIV-Gai inh: inactive

Results for CN(C)c1ccc(/C=C(/C#N)c2ccc(C#N)cc2)cc1 ?
GIV-Gai inh: 11

How did CCCn1c(=O)c2c(nc3n2CCCCN3c2ccc(OCC)cc2)n(C)c1=O do in these assays?
GIV-Gai inh: inactive

What do the screens show for `CCOC(=O)N1CCN(C(=O)c2cccn3c(=O)c4cc5ccccc5cc4nc23)CC1`?
GIV-Gai inh: 24

What do the screens show for `O=C(c1cccn2c(=O)c3cc(Cl)ccc3nc12)N1CCN(c2ccccc2F)CC1`?
GIV-Gai inh: inactive

How did Cc1ccc(C)c(N2CCN(C(=O)c3cccn4c(=O)c5ccccc5nc34)CC2)c1 do in these assays?
GIV-Gai inh: inactive

Results for CC(C)N1C(=O)/C(=C\c2ccc(N(C)C)cc2)SC1=Nc1ccccc1 ?
GIV-Gai inh: inactive

Results for O=C(CCC(=O)N1CCN(C2CCCCC2)CC1)N1CCCN(c2nc3cccnc3s2)CC1 ?
GIV-Gai inh: inactive

What do the screens show for `CC(=O)OCCN1C(=C/C=C/c2n(CCOC(C)=O)c3cc(Cl)c(Cl)cc3[n+]2CCOC(C)=O)N(CCOC(C)=O)c2cc(Cl)c(Cl)cc21`?
GIV-Gai inh: inactive

What do the screens show for `CCCC[n+]1c(/C=C/C=C2\N(CC)c3ccc(C(=O)OCC)cc3N2CCCS(=O)(=O)[O-])n(CC)c2cc(C(=O)OCC)ccc21`?
GIV-Gai inh: inactive

Results for CCCCN1/C(=C\C=C\c2n(CCCS(=O)(=O)[O-])c3cc(C(=O)OCC)ccc3[n+]2CCCC)N(CC)c2cc(C(=O)OCC)ccc21 ?
GIV-Gai inh: inactive

What do the screens show for `CCCCCN1/C(=C\C=C\c2n(CC)c3cc(Cl)c(Cl)cc3[n+]2CCCCC)N(CC)c2cc(Cl)c(Cl)cc21`?
GIV-Gai inh: -62

What do the screens show for `CCCCN1/C(=C/C=C/c2n(CCCC)c3cc(Cl)c(Cl)cc3[n+]2C)N(C)c2cc(Cl)c(Cl)cc21`?
GIV-Gai inh: 37

Results for C=CCn1c(/C=C/C=C2N(CC)c3cc(Cl)c(Cl)cc3N2CC)[n+](CCCS(=O)(=O)[O-])c2cc(Cl)c(Cl)cc21 ?
GIV-Gai inh: inactive

Results for CCC(C(=O)Nc1ccc2c(c1)OCO2)n1nc(-c2ccccc2)c2c(c1=O)CCCC2 (stereo unspecified) ?
GIV-Gai inh: inactive

How did CC1(C)SC(=S)N(CCN2CCOCC2)C1N(O)C(=O)Nc1ccc(Cl)cc1 (stereo unspecified) do in these assays?
GIV-Gai inh: inactive

What do the screens show for `O=S(=O)(Nc1ccc(-c2ccc(N3CCOCC3)nn2)cc1)c1ccc(Br)cc1`?
GIV-Gai inh: inactive

How did CCOC(=O)/C(C#N)=C\c1ccc(-c2cccc(C(F)(F)F)c2)o1 do in these assays?
GIV-Gai inh: inactive

What do the screens show for `N#C/C(=C\c1ccc(N2CCCCC2)o1)C(N)=O`?
GIV-Gai inh: inactive

What do the screens show for `CCOC(=O)/C(C#N)=C/c1ccc(N2CCCCC2)o1`?
GIV-Gai inh: -74

What do the screens show for `CCOC(=O)c1sc(=S)n2c1[nH]c(=O)c1ccccc12`?
GIV-Gai inh: inactive

How did COc1cc(C2C(C(=O)c3cc4cccc(OC)c4o3)=C(O)C(=O)N2c2nnc(C)s2)cc(Br)c1O (stereo unspecified) do in these assays?
GIV-Gai inh: 27

How did COc1cccc2cc(C(=O)C3=C(O)C(=O)N(CCCn4ccnc4)C3c3ccc(F)cc3)oc12 (stereo unspecified) do in these assays?
GIV-Gai inh: inactive

How did COc1ccc(C2/C(=C(\O)c3ccc(F)cc3)C(=O)C(=O)N2c2nnc(C)s2)cc1OC (stereo unspecified) do in these assays?
GIV-Gai inh: inactive

Results for O=C(Cn1c(=O)c2cccn2c2ccc(F)cc21)NCCCN1CCC(N2CCCCC2)CC1 ?
GIV-Gai inh: inactive

What do the screens show for `CCc1nn2c(=O)cc(CN(CC)c3ccccc3)nc2s1`?
GIV-Gai inh: inactive

What do the screens show for `COc1cc(OC)c(OC)cc1/C=C1\N=C(c2ccc(-c3ccccc3)cc2)OC1=O`?
GIV-Gai inh: inactive

What do the screens show for `COc1ccc(Br)cc1/C=C1/N=C(c2ccc(OC)c(OC)c2)OC1=O`?
GIV-Gai inh: -12

What do the screens show for `COc1cc(OC)c(OC)cc1/C=C1\N=C(c2cncc(Br)c2)OC1=O`?
GIV-Gai inh: -8.4

Results for COc1cc(OC)c(OC)cc1/C=C1\N=C(c2cccc(Br)c2)OC1=O ?
GIV-Gai inh: inactive

What do the screens show for `COc1ccc(Br)cc1/C=C1/N=C(c2ccc(C)c([N+](=O)[O-])c2)OC1=O`?
GIV-Gai inh: inactive

How did COc1ccc(Br)cc1/C=C1\N=C(c2cc(OC)c(OC)c(OC)c2)OC1=O do in these assays?
GIV-Gai inh: inactive

What do the screens show for `O=C(COc1ccccc1)Nc1ccc2nc(NS(=O)(=O)c3ccccc3)sc2c1`?
GIV-Gai inh: inactive

What do the screens show for `O=c1c2sccc2nc(SCc2nc(-c3ccc4c(c3)OCO4)no2)n1C1CC1`?
GIV-Gai inh: inactive

How did O=C1/C(=C/c2cn(-c3ccccc3)nc2-c2cccs2)SC(=S)N1C1CCS(=O)(=O)C1 (stereo unspecified) do in these assays?
GIV-Gai inh: inactive

Source: PubChem BioAssay (ICCB-Longwood Screening Facility, Harvard Medical School)
